Laboratory results as given in US20210393742A1, “LONG-ACTING INTERLEUKIN-15 RECEPTOR AGONIST IN COMBINATION WITH ANOTHER PHARMACOLOGICALLY ACTIVE AGENT” (Nektar Therapeutics, priority 2018, published 2021).

Legend:
Format in all cases: in vivo, mice
[1] = system: SKOV-3 cells; test: Tumor growth inhibition in SKOV-3 ovarian carcinoma model (Example 21); details: trastuzumab 13.5 mg/kg IV x6, Compound 1 0.3 mg/kg IV x3
Experimental: Balb/c nude mice (N=10/group) inoculated subcutaneously on flank with 10 million SKOV-3 cells mixed with matrigel in 1:1 ratio were treated with total of six doses of trastuzumab (13.5 mg/kg, IV, administered twice a week for 3 weeks starting on day 6 after inoculation) and a total of three doses of mono(methoxyPEG-N-butanamide)40 kD interleukin-15 (Compound 1) (0.3 mg/kg, intravenous), administered 6, 13 and 20 days after tumor inoculation). Tumor growth inhibition in inoculated mice was measured 35 days after treatment initiation. Results are provided graphically in FIG. 24.

[2] = system: NCI-N87 cells; test: Tumor growth inhibition in NCI-N87 gastric carcinoma model (Example 22); details: 25 days after treatment initiation; trastuzumab 3/1/1 mg/kg IV; Compound 1 0.3 mg/kg IV x3
Experimental: Balb/c nude mice (N=10/group) inoculated subcutaneously on flank with 10 million NCI-N87 cells mixed with matrigel in 1:1 ratio were treated with total of three doses of trastuzumab (first dose 3 mg/kg and subsequent two doses 1 mg/kg, IV, administered 5, 12 and 20 days after inoculation) and a total of three doses of mono(methoxyPEG-N-butanamide)40 kD interleukin-15 (Compound 1) (0.3 mg/kg, intravenous), administered 5, 12 and 19 days after tumor inoculation. Tumor growth inhibition in inoculated mice was measured 25 days after treatment initiation. Results are provided graphically in FIG. 25.

[3] = system: H1975 lung carcinoma cells; test: Tumor growth in H1975 lung tumor model (Example 17); details: day 27 after treatment initiation; cetuximab 0.25 mg/kg IP x3; Compound 1 0.3 mg/kg IV x3
Experimental: Balb/c nude mice (N=10/group) inoculated subcutaneously on flank with 5 million H1975 cells were treated with total of 3 doses of cetuximab (0.25 mg/kg, IP, administered 9, 12 and 16 days after inoculation) and a total of three doses of mono(methoxyPEG-N-butanamide)40 kD interleukin-15 (Compound 1) (0.3 mg/kg, intravenous), administered 9, 16 and 23 days after tumor inoculation. Delay in loss of tumor growth control was evaluated on day 27 after treatment initiation. Results are provided graphically in FIG. 20.

[4] = system: HT-29 colorectal carcinoma cells; test: Tumor growth inhibition and delay in HT-29 colorectal carcinoma model (Example 18); details: day 21 after treatment initiation; cetuximab 40 mg/kg IP x6; Compound 1 0.3 mg/kg IV x3
Experimental: (§1) SCID mice (N=8/group) inoculated subcutaneously on flank with 5 million HT-29 cells were treated with total of six doses of cetuximab (40 mg/kg, IP, administered 7, 11, 14, 18, 21, 25 days after inoculation) and a total of three doses of mono(methoxyPEG-N-butanamide)40 kD interleukin-15 (Compound 1) (0.3 mg/kg, intravenous), administered 7, 14 and 21 days after tumor inoculation. Tumor growth inhibition was evaluated on day 21 after treatment initiation. Results are provided graphically in FIG. 21A.
The tumor growth delay (TVQT) was evaluated with the endpoint set as 400% tumor growth from baseline.

[5] = system: HCT-116 colorectal carcinoma cells; test: Tumor growth inhibition and delay in HCT-116 colorectal carcinoma xenograft model (Example 19)
Experimental: as §1, with “million HCT-116” for “million HT-29”, “mg/kg, intravenously,” for “mg/kg, intravenous),”, “tumor inoculation).” for “tumor inoculation.”, “day 19” for “day 21”, “FIG. 22A.” for “FIG. 21A.”
The tumor growth delay was evaluated by measuring tumor volume quadrupling time (TVQT) from baseline tumor volume on treatment initiation day.

Substance | tumor growth inhibition ([1]; 35 days after treatment initiation) [%] | tumor free animals [1] | tumor growth inhibition [2] [%] | tumor growth control [3] | tumor growth inhibition [4] | tumor growth inhibition ([5]; day 19 after treatment initiation, cetuximab 40 mg/kg IP x6, Compound 1 0.3 mg/kg IV x3) | tumor growth delay (TVQT) ([5]; tumor volume quadrupling time from baseline)
Trastuzumab: humanized anti-HER2 monoclonal antibody (Herceptin®, Genentech, Inc.) | 61 | no tumor free animals | 29 |  |  |  | 
cetuximab: anti-EGFR monoclonal antibody (Erbitux®, Lilly USA) [reference compound] |  |  |  | resumption of tumor growth after cetuximab treatment schedule had been completed | no tumor growth inhibition | no tumor growth inhibition | no tumor growth delay
